Laboratory results published in article PMC2717937 (Journal of Experimental & Clinical Cancer Research : CR, 2009).
Where a name gives a salt, the structure may show the parent alone.

Structure (SMILES): Cc1ccc(NC(=O)c2ccc(CN3CCN(C)CC3)cc2)cc1Nc1nccc(-c2cccnc2)n1 [Imatinib, Imatinib mesylate]
- Imatinib in the brain within the first 5 minutes after administration (either group (vehicle or tariquidar pretreatment)): No imatinib was detectable
- Brain Tmax (imatinib 50 mg/kg oral, vehicle 30 min before): after two hours
